Measurements published in PMC3858552, “The discovery of potent ribosomal S6 kinase inhibitors by high-throughput screening and structure-guided drug design” (Oncotarget, 2013).
Like-named read-outs stand apart in the source and are kept apart here.

By UniProt entry, the sequences of proteins in these tests, tags left out. Residues count along the entry.
UniProt P23443, 1-421 T412E limits assumed: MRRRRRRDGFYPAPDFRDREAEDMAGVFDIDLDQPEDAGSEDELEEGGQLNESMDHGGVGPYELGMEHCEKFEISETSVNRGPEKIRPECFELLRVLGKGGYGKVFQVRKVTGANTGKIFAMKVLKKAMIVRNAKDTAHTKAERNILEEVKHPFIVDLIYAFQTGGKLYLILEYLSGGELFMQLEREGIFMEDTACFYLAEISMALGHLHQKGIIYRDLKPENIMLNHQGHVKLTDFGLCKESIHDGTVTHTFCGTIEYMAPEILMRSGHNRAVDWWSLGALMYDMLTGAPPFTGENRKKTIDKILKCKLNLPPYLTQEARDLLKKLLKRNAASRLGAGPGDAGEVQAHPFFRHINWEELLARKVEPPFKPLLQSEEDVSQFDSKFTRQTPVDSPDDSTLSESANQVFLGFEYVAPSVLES

How the values were obtained:
S6K1 = S6K1 (Homo sapiens, UniProt P23443, T412E); test: S6K1 DELFIA phosphorylation assay (IC50 of screening hits); conditions: for LE (ligand efficiency): calculated using the mean IC50 values; for IC50: read-out: S6K1 IC50, repurchased samples; for activity against S6K1 (in words): carboxamidobenzimidazole analogues
[1] = system: poly(ADP-ribose) polymerase (PARP); conditions: cited from earlier work
[2] = Table 1, confirmation DELFIA assay, mean ± standard error, duplicate, >100 values single measurement

SMILES | LE (ligand efficiency) (S6K1; Table 1) | IC50 (S6K1; HTS hits) | IC50 (S6K1; [2]) | activity against S6K1 (in words) (S6K1) | PARP activity [1]
COc1cc(-c2nc3c(C(N)=O)cccc3[nH]2)ccc1O | 0.33 | 10.1 µM | 10.1 µM | – | –
NC(=O)c1cccc2[nH]c(-c3cccc(O)c3)nc12 | 0.44 | – | 1.04 µM | – | –
CNC(=O)c1cccc2[nH]c(-c3ccc(O)cc3)nc12 | – | – | > 100 µM | inactive | –
O=C(O)c1cccc2[nH]c(-c3ccc(O)cc3)nc12 | – | – | > 100 µM | loss of activity | inactive against PARP
NC(=O)c1ccc2[nH]c(-c3ccc(O)cc3)nc2c1 | – | – | > 100 µM | inactive | lacking PARP activity
